Test [1] concerns P. aeruginosa PAM1154 carrying wild-type KPC-2 (PAM4135). The test is described as follows: Checkerboard potentiation of antibiotic activity by BLIs. Conditions: PAM4135 KPC-2. It is filed as cell-based, Pseudomonas aeruginosa. An excerpt: BLI potency was defined as PV50 (PV, potentiation value) of antibiotic potentiation. PV50 is the concentration of a BLI that is required to reduce the antibiotic MIC to the middle of the MIC range where the highest MIC is the MIC for a KPC-producing strain with no inhibitor added and the lowest MIC is the MIC for the vector-alone strain, which corresponds to complete inhibition of KPC. As a given MIC is directly related to the β-lactamase activity, PV50 might be considered the concentration of a BLI that is required to achieve half-effect of inhibition of β-lactamase activity (in whole cells) to hydrolyze an antibiotic of interest. […] However, the accurate determination of PV50 requires the MIC range to be relatively wide.
For microbiological studies, wild-type blaKPC-2 and its mutant variants were cloned into the shuttle vector pUCP24. Resulting plasmids were transformed in the efflux-deficient strain of P. aeruginosa PAM1154 using selection on 15 μg/ml of gentamicin. Using a strain of P. aeruginosa as opposed to E. coli as a host for various cloned genes was based on the following consideration. As well documented elsewhere ([41]), P. aeruginosa has a low-permeability outer membrane; consequently, the effect of β-lactamases on MIC is amplified in P. aeruginosa compared to that in E. coli due to the slowed uptake of β-lactams. Thus, this host is appropriate to detect β-lactamase activity (as an MIC increase) of low-catalytic-efficiency enzymes that rely heavily on low permeability of the outer membrane. […] MICs were determined using the Clinical and Laboratory Standards Institute (CLSI) broth microdilution method as described in CLSI document M07-A11 ([42]). […] BLI potency was defined as PV50 (PV, potentiation value). PV50 is the minimal concentration of a BLI that is required to reduce the antibiotic MIC to the middle of the MIC range (E50) where the highest MIC is the MIC for a KPC-producing strain with no inhibitor added and the lowest MIC is the MIC for the vector-only strain, corresponding to the complete inhibition of KPC. E50 is calculated as the square root of the product of the antibiotic MICs for the KPC-producing and the vector-only strains.
[…]
8 antibiotic MIC values for the beta-lactamas e-producing and the vector onl y strain.

For test [2], the system named is P. aeruginosa PAM1154 carrying pUCP24-KPC-2 (PAM4135). The test is described as follows: MIC, CLSI broth microdilution. It is filed as cell-based. Conditions: Pseudomonas aeruginosa; PAM4135, pUCP24-KPC-2; drug alone. The source says:
The effects of KPC mutations on resistance to various antibiotics were investigated. For these studies, pUCP24 plasmids carrying wild-type and mutant blaKPC-2 genes as well as the pUCP24 vector were transformed into PAM1154, an efflux-deficient strain of Pseudomonas aeruginosa. In this host, the effect of β-lactamases on β-lactam MIC is amplified due to the slowed uptake of β-lactams across the low-permeability outer membrane without interference by efflux of either β-lactams or BLIs. Consequently, this host allows detection of β-lactamase activity (as an MIC increase) of low-catalytic-efficiency enzymes that rely heavily on the low permeability of the outer membrane. Using the strain that lacks efflux pumps ensures no interference from efflux in interpreting results. We next evaluated the steady-state protein expression levels in bacterial cells.
For microbiological studies, wild-type blaKPC-2 and its mutant variants were cloned into the shuttle vector pUCP24. Resulting plasmids were transformed in the efflux-deficient strain of P. aeruginosa PAM1154 using selection on 15 μg/ml of gentamicin. […] MICs were determined using the Clinical and Laboratory Standards Institute (CLSI) broth microdilution method as described in CLSI document M07-A11 ([42]). […] E50 is calculated as the square root of the product of the antibiotic MICs for the KPC-producing and the vector-only strains.
For orientation: In broth dilution the organism is exposed to a series of concentrations in liquid medium.

The term MIC denotes the lowest concentration that inhibits growth of the organism. As for `CCN1CCN(C(=O)N[C@@H](C(=O)N[C@@H]2C(=O)N3[C@@H]2SC(C)(C)[C@@H]3C(=O)O)c2ccccc2)C(=O)C1=O` [Piperacillin, piperacillin], the “Beta-lactam MIC in the presence of BLI” value in test [1] (avibactam 0.06 µg/ml) was 64 µg/mL; in test [1] (avibactam 0.5 µg/ml) it was 2 µg/mL; in test [1] (avibactam 1 µg/ml) it was 1 µg/mL; in test [1] (avibactam 2 µg/ml), 0.5 µg/mL; in test [1] (avibactam 4 μg/ml), 0.5 µg/mL; in test [1] (avibactam 64 µg/ml), 0.03 µg/mL. Besides, the “Beta-lactam MIC in the presence of BLI” value in test [1] (vaborbactam 0.5 µg/ml) was found to be 8 µg/mL; in test [1] (vaborbactam 1 µg/ml) it was 1 µg/mL; in test [1] (vaborbactam 2 µg/ml), 0.5 µg/mL; in test [1] (vaborbactam […]), 64 µg/mL. Also, the “Antibiotic MIC with avibactam at 4 μg/ml” value in test [1] (avibactam 4 μg/ml) was found to be 0.5 µg/mL. Also, the “Antibiotic MIC, No BLI” value in test [1] (no BLI) came out at 128 µg/mL. In test [2], the MIC came to 128 µg/mL.

(Values after article PMC7179312 (Antimicrobial Agents and Chemotherapy, 2020).)
